# Laboratory results from paper doi:10.1101/2022.10.27.513961v1 (bioRxiv, 2022).
# Tests used:
# HT144 cells = experiment: Real-time cell analysis, xCELLigence impedance; type: cell-based
# WM164 cells = experiment: Real-time cell analysis, xCELLigence impedance; type: cell-based
smiles,measurement,setting,value
"CC(C)C[C@@H]1NC(=O)[C@H](CCCNC(=N)N)NC(=O)[C@H](CCCNC(=N)N)NC(=O)[C@@H]2CSSC[C@H](NC(=O)[C@H](Cc3ccc(O)cc3)NC(=O)[C@H]([C@@H](C)O)NC(=O)[C@H](C(C)C)NC(=O)[C@@H]3CSSC[C@H](NC1=O)C(=O)N[C@@H](Cc1ccc(O)cc1)C(=O)N[C@@H](CCCCN)C(=O)N[C@@H](CCC(N)=O)C(=O)N[C@@H](CCCNC(=N)N)C(=O)N3)C(=O)N[C@@H](CCCNC(=N)N)C(=O)NCC(=O)N[C@@H](CCCNC(=N)N)C(=O)NCC(=O)N2 [cGm, cyclic gomesin]",reduction in impedance signal,"HT144 cells; 4 µM, 24 h",~50%
same,time to drop in the impedance to ∼0,HT144 cells; 8 µM,2 to 3 h
same,reduction in impedance signal,"WM164 cells; 4 µM, 24 h",~50%
same,time to drop in the impedance to ∼0,WM164 cells; 8 µM,2 to 3 h
